Values of other authors in article PMC7547215 (Proceedings of the National Academy of Sciences of the …, 2020).
Where two headings read alike, the source gives them in different places.

Legend:
VEGFR and PDFGR [1] = conditions: read-out: IC50, VEGFR and PDGFR in vitro; cited from earlier work
VEGFR and PDFGR [2] = conditions: read-out: IC50, VEGFR and PDGFR in cells; cited from earlier work

CCN(CC)CCNC(=O)c1c(C)[nH]c(/C=C2\C(=O)Nc3ccc(F)cc32)c1C [sunitinib]
IC50 (VEGFR and PDFGR [1]): 9 to 10 nM
IC50 (VEGFR and PDFGR [2]): 30 to 40 nM
